1 compound from article PMC12137875 (Nature Communications, 2025) can be followed below.

Protein sequences, listed by entry. Tags and fused reporters are not part of them.
UniProt Q96S37, whole entry L9Q/M22V/M25V/S27P/A51V/I63V/L64P/S66A: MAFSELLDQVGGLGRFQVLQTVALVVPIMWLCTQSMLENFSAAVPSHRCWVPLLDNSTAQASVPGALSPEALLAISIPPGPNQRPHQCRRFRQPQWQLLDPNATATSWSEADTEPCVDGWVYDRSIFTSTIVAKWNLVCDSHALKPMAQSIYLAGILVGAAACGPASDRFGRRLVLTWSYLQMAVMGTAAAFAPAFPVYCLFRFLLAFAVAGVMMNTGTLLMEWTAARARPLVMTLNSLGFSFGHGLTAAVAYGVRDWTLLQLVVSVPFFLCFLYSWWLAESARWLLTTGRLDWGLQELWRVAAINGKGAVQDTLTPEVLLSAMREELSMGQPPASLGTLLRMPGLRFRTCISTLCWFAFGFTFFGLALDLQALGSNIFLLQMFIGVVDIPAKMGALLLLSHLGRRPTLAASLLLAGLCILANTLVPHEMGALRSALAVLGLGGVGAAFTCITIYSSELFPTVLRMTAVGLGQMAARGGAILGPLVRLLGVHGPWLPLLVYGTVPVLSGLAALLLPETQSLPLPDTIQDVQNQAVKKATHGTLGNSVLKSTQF

One assay concerns the target hURAT1 (Homo sapiens, UniProt Q96S37). Type of assay: cell-based. To be noted: Competitive model, global non-linear fit, value with 95% confidence interval.
The target of another assay is URAT1CS (Homo sapiens, UniProt Q96S37, A51V/I63V/L64P/L9Q/M22V/M25V/S27P/S66A, form not given). The class given is cell-based. To be noted: HEK293T cells expressing hURAT1 versus URAT1CS.

In general, Ki refers to the dissociation constant of the complex between target and ligand, obtained from inhibition or displacement.

Take `O=C(O)CSc1nnc(Br)n1-c1ccc(C2CC2)c2ccccc12` [LESU, lesinurad]: affinity on hURAT1 was put at a Ki of 348 nM. The “Inhibitor binding to URAT1CS as judged from IC50” value on URAT1CS is listed as “high affinity”.
